Measured values reported in patent publication US8987474B2 (University of South Florida, priority 2006, dated 2015).

By UniProt entry, the sequences of proteins in these tests, tags left out. Chains listed by the source or under a name are the forms on record and can include a tag or linker.
UniProt P35236, other isoform, or with tags, fused parts or gaps: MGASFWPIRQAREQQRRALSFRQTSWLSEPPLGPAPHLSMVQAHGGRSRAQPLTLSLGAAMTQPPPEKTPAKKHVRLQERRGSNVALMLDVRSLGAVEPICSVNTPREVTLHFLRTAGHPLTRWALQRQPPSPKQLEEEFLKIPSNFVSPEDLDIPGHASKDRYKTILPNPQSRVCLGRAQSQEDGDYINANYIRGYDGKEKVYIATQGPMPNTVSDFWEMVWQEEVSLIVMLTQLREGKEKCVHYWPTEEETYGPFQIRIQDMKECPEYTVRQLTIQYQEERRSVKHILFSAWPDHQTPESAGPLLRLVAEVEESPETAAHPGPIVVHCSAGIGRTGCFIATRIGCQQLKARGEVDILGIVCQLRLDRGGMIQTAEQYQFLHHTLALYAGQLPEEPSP

Target: HePTP (Homo sapiens (Human), UniProt P35236)
Experiment: biochemical
From the text: All constructs were verified by DNA sequencing.
Recombinant DEP1 was from Abcam.

`O=S(=O)(O)c1ccc2cc(/N=N\c3cc(S(=O)(=O)O)c4cccnc4c3O)ccc2c1` [NSC-87877, 8-hydroxy-7-(6-sulfonaphthalen-2-yl)diazenyl-quinoline-5-sulfonic acid] showed an IC50 of 7.74 ± 1.56 µM.
